This passage reports inhibition results from PubChem BioAssay AID629 (Emory University Molecular Libraries Screening Center, 2007).

By UniProt entry, the sequences of proteins in these tests, tags left out.
UniProt P03372, whole entry: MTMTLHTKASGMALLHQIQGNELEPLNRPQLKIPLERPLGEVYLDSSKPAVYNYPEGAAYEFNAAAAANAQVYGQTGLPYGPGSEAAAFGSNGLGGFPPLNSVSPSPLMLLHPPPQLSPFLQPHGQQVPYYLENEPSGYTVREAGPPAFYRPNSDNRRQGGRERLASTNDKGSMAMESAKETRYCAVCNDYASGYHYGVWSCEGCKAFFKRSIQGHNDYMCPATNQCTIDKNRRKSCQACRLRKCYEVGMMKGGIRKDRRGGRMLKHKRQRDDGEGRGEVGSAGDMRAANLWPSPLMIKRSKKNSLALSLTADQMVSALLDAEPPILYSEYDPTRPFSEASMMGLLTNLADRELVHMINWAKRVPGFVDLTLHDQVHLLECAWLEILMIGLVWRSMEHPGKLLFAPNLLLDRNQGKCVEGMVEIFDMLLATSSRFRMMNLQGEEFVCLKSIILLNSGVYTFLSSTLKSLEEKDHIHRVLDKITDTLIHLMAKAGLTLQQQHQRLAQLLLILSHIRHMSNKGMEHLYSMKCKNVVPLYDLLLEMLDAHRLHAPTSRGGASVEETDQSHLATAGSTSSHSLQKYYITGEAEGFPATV

The list shows a part of the results, in another mix than the full data. Calls of active or inactive are those of the source. Rule as the data show it: active = inhibition above about 50%; inactive = the rest.

In the test the target is Estrogen receptor (Homo sapiens) (UniProt P03372). The test can be described thus: ERα–SRC-1 coactivator interaction inhibitors, primary screen, biochemical, TR-FRET, ERα LBD, estradiol-bound (AID 629).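 Also: 0% = receptor plus peptide control and 100% = peptide only without receptor.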 To be noted: TR-FRET ER-alpha LBD / SRC-1 peptide, at 25.6 µM, hits give high values. (In general: In TR-FRET formats the signal depends on donor and acceptor labels being close together.)
A word on the inhibition: it is the drop in the measured response relative to a control, in per cent. As for `CCOc1ncccc1C(=O)NCC1(N2CCOCC2)CCCCC1`, the inhibition was inactive: -6.25%. For `CCC(CO)(C(=O)OC1CN2CCC1CC2)c1ccccc1` (centres undefined) the value was inactive: -13.7%; for `Fc1ccccc1NC1CCN(Cc2ccccc2)CC1`, inactive: -4.9%; for `c1ccc(CN2CCC(Nc3ccccc3)CC2)cc1`, inactive: 7.96%. For `N/C(=N\O)c1c(N)no[n+]1[O-]`, the inhibition was inactive: 7.66%. Then `N#CC1(Nc2ccccc2)CCN(CCc2ccccc2)CC1`, with inactive: -13.4%; and `O=C(NCC1(N2CCOCC2)CCCCC1)c1cc(=O)[nH]c2ccccc12`, with inactive: 20.5%. Take `O=C(OC1CN2CCC1CC2)C1c2ccccc2Oc2ccccc21` (centres undefined): the inhibition was inactive: 6.32%.

Consider `O=C(NCC1(N2CCOCC2)CCCCC1)c1cc2ccccc2o1`, for which the inhibition was inactive: -7.57%.
